The target of this assay is H3R membranes (H3R8-expressing HEK293 cell line) (Homo sapiens, UniProt Q9Y5N1). Nature of the assay: [35S]GTPγS binding assay (antagonist inhibition of agonist-stimulated binding). The following applies: inhibition of [35S]GTPγS binding to H3R membranes in presence of agonist R(-) alpha methylhistamine. In general terms: Binding of GTPγS marks nucleotide exchange on a G protein.

Protein sequences, listed by entry. Tags and fused reporters are not part of them. Lines headed by an entry give the natural chain unless they say otherwise; changes in a name come on top.
UniProt Q9Y5N1, whole entry: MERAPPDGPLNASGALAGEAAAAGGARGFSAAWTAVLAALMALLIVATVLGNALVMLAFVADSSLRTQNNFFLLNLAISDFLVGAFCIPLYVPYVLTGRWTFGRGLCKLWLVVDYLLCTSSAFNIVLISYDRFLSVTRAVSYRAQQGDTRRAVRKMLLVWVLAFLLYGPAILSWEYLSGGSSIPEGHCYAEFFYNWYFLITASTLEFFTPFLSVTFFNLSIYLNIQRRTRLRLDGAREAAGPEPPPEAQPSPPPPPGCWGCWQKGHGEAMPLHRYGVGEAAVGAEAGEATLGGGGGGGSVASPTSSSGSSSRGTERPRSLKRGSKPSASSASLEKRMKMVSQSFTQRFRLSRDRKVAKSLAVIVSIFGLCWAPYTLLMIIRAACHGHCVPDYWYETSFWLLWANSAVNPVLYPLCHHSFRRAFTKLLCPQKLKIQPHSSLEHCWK

Values joined by “and” are separate entries in the source; they are usually repeats but may differ in a detail not shown here. Identical values can stand only once.

`CCN(CC)CCCOc1ccc(C(C)NCCN(C)C)cc1` (stereo not shown): the Ki was 1.48 nM and 0.95 nM.

As usually defined, the Ki is a dissociation constant, usually derived from enzyme kinetics or from competition with a known ligand.

Source of the values: patent US7314937B2, “Non-imidazole aryl alkylamines compounds as histamine H3 receptor antagonists, preparation and therapeutic uses” (Eli Lilly and Company, priority 2002, dated 2008).
